Inhibition data for 1 compound are collected here from PubChem BioAssay AID743126 (The Scripps Research Institute Molecular Screening Center, 2013).

By UniProt entry, the sequences of proteins in these tests, tags left out.
UniProt Q9NZ20, whole entry: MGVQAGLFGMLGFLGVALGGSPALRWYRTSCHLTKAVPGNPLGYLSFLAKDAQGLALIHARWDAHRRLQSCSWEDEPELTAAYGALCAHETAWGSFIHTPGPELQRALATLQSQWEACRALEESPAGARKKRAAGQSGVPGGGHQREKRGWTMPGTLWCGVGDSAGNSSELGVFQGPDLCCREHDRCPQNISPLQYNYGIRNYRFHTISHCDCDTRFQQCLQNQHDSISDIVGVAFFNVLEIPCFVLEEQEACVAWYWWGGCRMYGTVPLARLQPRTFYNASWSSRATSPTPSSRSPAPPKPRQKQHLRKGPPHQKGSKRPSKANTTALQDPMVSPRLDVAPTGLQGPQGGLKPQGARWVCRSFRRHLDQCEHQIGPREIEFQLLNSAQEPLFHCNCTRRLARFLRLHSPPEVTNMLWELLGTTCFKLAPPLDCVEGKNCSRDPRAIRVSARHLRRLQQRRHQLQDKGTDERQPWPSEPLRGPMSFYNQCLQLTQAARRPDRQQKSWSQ

Structures are written as SMILES. Only a part is listed here, and it is no random draw. Activity calls are given as the source filed them.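 The calls were made as follows: active = inhibition above mean plus 3 SD of compounds lying within the high and low control bounds (cut at about 19% in these data); inactive = the rest.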

The assay has as its target Group 3 secretory phospholipase A2 (Homo sapiens) (UniProt Q9NZ20). The assay is described as follows: human group III sPLA2 inhibitors, primary screen, biochemical, QFRET, BODIPY PC-A2 liposome substrate (AID 743126).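 Also: 0% = median of test compound wells and 100% = no enzyme DMSO wells.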 Conditions: QFRET BODIPY PC-A2 liposome hydrolysis, fluorescence; at 12.2 µM; active compounds read high.
The term inhibition denotes the drop in the measured response relative to a control, in per cent. With `Cc1cc(SC(NC=O)C(Cl)(Cl)Cl)ncn1` (stereo unspecified), the inhibition was inactive: -0.73%.
